Binding of CDR-mutated scFvs to a peptide of the spike HR2 region

Reference: Li et al. 2023, doi:10.1038/s41467-023-39022-2. File: FLAb, binding data.

Target: peptide PDVDLGDISGINAS, taken from heptad repeat 2 (HR2) of SARS-CoV-2 spike.

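Phage display of a naive human antibody library on the peptide gave the parent. Designed CDR sequences, proposed from the first random library and measured here. Group labels follow the data file (En: ensemble of fine-tuned language models; GP: Gaussian process model; HC: hill climbing; Gen: genetic algorithm; Gibbs: Gibbs sampling; a sequence that several methods proposed may carry one label only). AlphaSeq pools MATa yeast showing the antibodies with MATalpha yeast showing the peptide. Mating (16 h, 30 °C) was followed by selection of diploids and sequencing of their barcodes. Each replicate has its own calibration line, from reference interactions of the BCL2 family. The assay was run in six technical replicates.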

Parent scFv Ab-14: VH joined to VL by a 15-residue (Gly4Ser)3 linker. Changes lie in the light chain CDRs alone.
VH: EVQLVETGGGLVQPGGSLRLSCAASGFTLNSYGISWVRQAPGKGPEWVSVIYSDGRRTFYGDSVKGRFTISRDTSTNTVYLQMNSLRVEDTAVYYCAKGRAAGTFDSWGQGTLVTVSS
VL: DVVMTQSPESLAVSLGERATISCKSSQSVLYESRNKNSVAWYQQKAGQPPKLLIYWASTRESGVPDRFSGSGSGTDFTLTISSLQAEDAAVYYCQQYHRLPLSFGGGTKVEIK

Variants are written as CDR1, CDR2 and CDR3 of the light chain (limits as in the source). Parent: KSSQSVLYESRNKNSVA, WASTRES, QQYHRLPLS.
This list holds designs with more than six substitutions.
Affinities are written as log10 Kd with Kd in nM; a lower number is a better binder.
Averages over replicates are reported, and they cover detected replicates only.
An entry "nd" has no value in the source: the pair was not observed among the diploids in that replicate. This suggests poor binding but is not conclusive.
Of ten entries with the parent sequence, four were seen in most replicates (averages 0.34 to 2.37), three in one and three in none, so single entries are noisy.

With KFSQMVLTGAYVSNSVA, QMSTRVN, QQYHRLPLM [En_HC] the result was 0.46, 0.82, 0.81, 0.78, 0.82, 0.68 (mean 0.73; controls 0 of 18).
With TVSQVHEMLSRNKNSVA, DMNTREQ, QQYDRLPLS [En_HC] the result was 0.23, 0.30, 0.21, 0.13, 0.05, 0.43 (mean 0.23; controls 0 of 18).
With KLSESVLYESQNWNNVA, DASTRMS, QQYHRLPLS [GP_Gibbs] the result was -0.17, -0.55, -0.38, -0.71, -0.62, -0.24 (mean -0.45; controls 1 of 18).
With IVSQLMLWGYHAKNSIA, EAELRTN, QQYDRLPLF [En_Gen] the result was nd, 0.99, nd, 0.80, nd, nd (mean 0.90; controls 0 of 18).
With HMSMLTLQGMRQRNSVA, QMTTREN, QQYDRLPLS [En_Gen] the result was 1.11, 1.19, 1.63, 1.40, 1.64, 1.90 (mean 1.48; controls 0 of 18).
With KLSQSVKYEDRNWNNVA, NASTRES, QAYHRLPLS [GP_Gibbs] the result was 0.71, 0.34, 0.38, 0.53, 0.23, 0.62 (mean 0.47; controls 1 of 18).
With HVSSMDMHDGGIMHSVA, DMKITER, QQYMRLPLS [En_Gibbs] the result was 0.77, 1.09, 0.74, 1.25, 0.49, 1.01 (mean 0.89; controls 2 of 18).
With KISMLQRFQSNSKNNIA, EMSRREE, QQYHRLPLS [En_HC] the result was 2.86, 2.04, 2.02, 1.37, 2.59, 1.70 (mean 2.10; controls 0 of 18).
With IVSQLMLWGMHAKNSIA, EAAMRLN, QQYDRLPLF [En_Gen] the result was nd, nd, nd, nd, nd, nd (controls 0 of 18).
With KIELDLTRYNAGGANIA, HETMKAQ, QQYSRLPLI [En_Gibbs] the result was 0.29, 0.42, 0.49, 0.37, 0.46, 0.75 (mean 0.46; controls 4 of 18).
With KISQAYLYESRNCNSVA, QANQRES, QQYHRLPLS [GP_Gibbs] the result was 0.22, -0.14, -0.26, -0.02, 0.18, 0.08 (mean 0.01; controls 3 of 18).
With KFQQSQLYEQRNQNSVA, SASYRMS, QQYHRLPLS [GP_Gibbs] the result was 0.68, nd, 0.09, -0.26, 1.50, 1.34 (mean 0.67; controls 0 of 18).
With SLSHDQGDETNHYENVA, QDHYRAN, QDYSRLPLS [En_Gibbs] the result was 0.60, 0.84, 0.09, 0.36, 1.27, 0.29 (mean 0.57; controls 2 of 18).
With KLSCGVDYWSRNKNSVA, GGSTRES, QQYHRLPLS [GP_Gibbs] the result was -0.35, -0.42, -0.19, -0.60, -0.21, -0.10 (mean -0.31; controls 0 of 18).
With KIAEQIMHVYIGANAIA, NATVRSA, QQYLRLPLM [En_Gibbs] the result was nd, 2.29, 2.65, nd, 2.41, 1.86 (mean 2.30; controls 1 of 18).
With NMTGIKEMQSNNINNIA, ENNERFQ, QQYFQLPLS [En_Gibbs] the result was 0.84, 0.47, 0.53, 0.49, 0.62, 0.71 (mean 0.61; controls 0 of 18).
With HVELGVGGVQAYGDSVA, HASQRQA, QQYYQLPLT [En_Gibbs] the result was 0.30, 0.12, -0.04, -0.03, 0.02, 0.19 (mean 0.09; controls 1 of 18).
With KISMMYRFEQTSSNNIA, EMTTRAE, QSYHRLPLS [En_HC] the result was 1.52, 0.63, 0.86, 0.55, 1.13, 0.92 (mean 0.93; controls 1 of 18).
With KVSQSHWGESRNKNSVA, HASLREV, QQYHRLPLS [GP_Gibbs] the result was 0.79, 0.64, 0.59, 0.63, 0.80, 0.83 (mean 0.71; controls 5 of 18).
With MMSSLMGYESRHINNVA, QTSTRES, QQYDRLPLI [En_Gen] the result was 1.11, 1.49, 1.26, 0.59, 0.80, 0.78 (mean 1.01; controls 0 of 18).
With MFSQLFMYGSRNYNSVA, QANTRES, QQYHRLPLI [En_HC] the result was 0.62, 1.68, 1.69, 1.81, 1.49, nd (mean 1.46; controls 0 of 18).
With ALAQGIYEPVRKSNNIA, EASHVGD, QQYERLPLE [En_Gibbs] the result was 1.18, 1.32, 0.87, 1.13, 1.17, 1.45 (mean 1.19; controls 0 of 18).
With QFHSGMIGDQRNVHSIA, NAQAAVP, QYYFRLPLS [En_Gibbs] the result was 0.69, 1.85, 1.70, 1.04, 3.39, 1.31 (mean 1.66; controls 0 of 18).
With KLMQEVEYESRLANSVA, NASTRLE, QQYHRLPLS [GP_Gibbs] the result was 0.32, 0.23, 0.11, 0.01, 0.23, 0.42 (mean 0.22; controls 2 of 18).
With KVSQGMWYEDRMKNSVA, NASQREQ, QQYHRLPLQ [GP_Gibbs] the result was 0.26, 0.41, 0.14, 0.14, 0.29, 0.37 (mean 0.27; controls 1 of 18).
With KLSQSYGYESTNSNSVA, DASTRED, QQYHRLPLS [GP_Gibbs] the result was 0.50, 0.22, 0.08, 0.26, 0.06, 0.28 (mean 0.23; controls 2 of 18).
With KVNISPHKQGMHKHGVA, DHDMRVS, QQYDRLPLA [En_Gibbs] the result was 0.89, 1.09, 0.95, 1.74, 0.95, 1.27 (mean 1.15; controls 1 of 18).
With TISQVMNTMTRHGNNVA, DLAERED, QQYFRLPLS [En_Gen] the result was 0.59, 0.45, 0.54, 0.52, 0.46, 0.72 (mean 0.55; controls 2 of 18).
With KISQMTRVGSTHGNSIA, EETTRAK, QQYHRLPLF [En_Gen] the result was 2.50, 2.05, nd, 2.25, 1.90, 2.03 (mean 2.15; controls 0 of 18).
With KLGETYEGEKKQRNSVA, HNTMREN, QQYDRLPLE [En_Gen] the result was 2.25, nd, 1.77, 1.78, 3.18, nd (mean 2.25; controls 1 of 18).
With KIQQFYEMESRNKNSVA, SASTRMS, QQYHRLPLS [GP_Gibbs] the result was 0.07, -0.27, -0.17, -0.25, -0.17, -0.24 (mean -0.17; controls 2 of 18).
With NIYQAMHTLSQMKDNVA, DVNERGQ, QQYFRLPLS [En_Gen] the result was 0.88, 0.07, 0.28, 0.09, 0.55, 0.46 (mean 0.39; controls 0 of 18).
With HMSMLTLSGMRHRNAVA, QMTTREN, QQYDRLPLT [En_Gen] the result was 1.95, 0.79, nd, nd, nd, 1.40 (mean 1.38; controls 0 of 18).
With KLQQQWEYESRNKNSVA, SASTREE, QQYHRLPLS [GP_HC] the result was 0.48, 0.26, 0.24, 0.10, 0.44, 0.24 (mean 0.29; controls 0 of 18).
With HIDQVKYDQKTAENNIA, SGAERVW, QQYSRLPFS [En_Gibbs] the result was -0.08, 0.21, 0.33, 0.13, 0.11, 0.24 (mean 0.16; controls 2 of 18).
With MISQLMQMGQFAINSVA, QASIRNE, QQYDRLPLM [En_Gen] the result was nd, 1.22, 2.10, nd, nd, 1.67 (mean 1.66; controls 0 of 18).
With MVTQLMLWGWHAKNSIA, EAQTRVN, QQYDRLPLF [En_Gen] the result was 1.48, 1.34, nd, nd, nd, 2.28 (mean 1.70; controls 0 of 18).
With KIYQMTGFQSRNADSIA, DNSTRGR, QQYHRLPLS [En_HC] the result was nd, nd, 2.77, nd, nd, 5.13 (mean 3.95; controls 2 of 18).
With MIYGAHMELGRAANSIA, DNVTRYN, QQYERLPLS [En_Gen] the result was 2.51, 1.33, 3.71, 1.67, 1.98, 1.01 (mean 2.03; controls 1 of 18).
With KLGSSTRFESSNKASIA, DNSTREN, QQYHRLPLS [En_HC] the result was 1.18, 1.21, 1.23, 1.16, 1.90, nd (mean 1.33; controls 1 of 18).
With KLMQSSLYDSRNKNSVA, QASTRMW, QQYHRLPLS [GP_Gibbs] the result was 0.52, 0.02, 0.27, 0.24, 0.04, 0.42 (mean 0.25; controls 1 of 18).
With KIQQSVLMESLNKNSVA, EASTRLD, QQYHRLPLS [GP_Gibbs] the result was 0.23, 0.64, -0.14, 0.48, 0.20, 0.69 (mean 0.35; controls 1 of 18).
With IVTQLMLWGWHAKNSIA, EAEMRTN, QQYDRLPLI [En_Gen] the result was 1.26, 2.22, 1.91, nd, 1.70, 1.72 (mean 1.76; controls 0 of 18).
With KSSQEDDYQSRNINSVA, DASLRES, QQYHRLPLS [GP_Gibbs] the result was 0.06, -0.08, -0.25, -0.30, -0.06, 0.16 (mean -0.08; controls 1 of 18).
With SLRLKELGMSYNANNVA, DSENRIK, QQYYRLPLM [En_Gibbs] the result was 0.69, 0.51, 0.13, 0.26, 0.43, 0.84 (mean 0.48; controls 1 of 18).
With HISMSVGMTSFHKNSVA, ENSTREN, QQYDRLPLS [En_HC] the result was 2.86, 2.56, 1.81, 2.30, 2.91, 2.71 (mean 2.52; controls 3 of 18).
With MISQLWNMGQFAINSVA, QASLRCN, QQYDRLPLT [En_Gen] the result was 2.30, 2.23, nd, nd, 2.55, 3.07 (mean 2.54; controls 0 of 18).
With NLSGMTAHETVKEKNIA, ERSTREM, QQYNRLPLS [En_Gen] the result was 0.64, 0.43, 0.40, 0.14, 0.17, 0.40 (mean 0.36; controls 0 of 18).
With KLEQSVMLESRNVNSVA, SASQREL, QQYHRLPLS [GP_Gibbs] the result was 0.14, 0.23, 0.15, -0.12, 0.21, 0.14 (mean 0.12; controls 0 of 18).

A selection of 4 entries from above:

{"CDR-L1": "KLQQQWEYESRNKNSVA", "CDR-L2": "SASTREE", "CDR-L3": "QQYHRLPLS", "group": "GP_HC", "replicates, log10 nM": "0.48, 0.26, 0.24, 0.10, 0.44, 0.24", "mean log10 Kd (nM)": "0.29", "control signals": "0/18"}
{"CDR-L1": "NIYQAMHTLSQMKDNVA", "CDR-L2": "DVNERGQ", "CDR-L3": "QQYFRLPLS", "group": "En_Gen", "replicates, log10 nM": "0.88, 0.07, 0.28, 0.09, 0.55, 0.46", "mean log10 Kd (nM)": "0.39", "control signals": "0/18"}
{"CDR-L1": "KIYQMTGFQSRNADSIA", "CDR-L2": "DNSTRGR", "CDR-L3": "QQYHRLPLS", "group": "En_HC", "replicates, log10 nM": "nd, nd, 2.77, nd, nd, 5.13", "mean log10 Kd (nM)": "3.95", "control signals": "2/18"}
{"CDR-L1": "KSSQEDDYQSRNINSVA", "CDR-L2": "DASLRES", "CDR-L3": "QQYHRLPLS", "group": "GP_Gibbs", "replicates, log10 nM": "0.06, -0.08, -0.25, -0.30, -0.06, 0.16", "mean log10 Kd (nM)": "-0.08", "control signals": "1/18"}

A sequence measured in both rounds can read differently, since the two assays cover different ranges.
Background: pairings of all light chain designs with three empty control strains gave a value in 4% of cases (median 2.64, 5th percentile 1.59). Values in that range, when seen in few replicates, are hard to tell from nonspecific mating. For each scFv, signals with the empty controls are counted beside the result.
The authors averaged sequences with at least three values out of six and counted those with two or fewer as poor binders.